# Data published in patent publication US20050049242A1 (priority 2000, published 2005).
# System: HIVLAI
# Test: Anti-HIV assay, protection from HIV-induced cell death
# Type: cell-based
# Conditions: read-out: ED50 (concentration that inhibits HIV-induced cell death by 50%), MT-2 cells, 72 hr
smiles,measurement,value
"O=C(O)[C@](O)(C(=O)/C=C/c1ccc(O)c(O)c1)[C@](O)(C(=O)O)C(=O)/C=C/c1ccc(O)c(O)c1 [Compound 2, Dicaffeoyl-D-tartaric acid]",EC50,6.3 µM
